Results from ChEMBL document CHEMBL1134498, “Experimental and computational screening models for the prediction of intestinal drug absorption” (J Med Chem, 2001).

Species on record: Homo sapiens
Experiment: Ratio of [(apical to basal)/(basal to apical)] (Caco-2 cell monolayer)
Format: ADME

Row | SMILES | Ratio
1 | O=C(O)c1cn(C2CC2)c2cc(N3CCNCC3)c(F)cc2c1=O [CIPROFLOXACIN] | 0.44
2 | CN1C(=O)CN=C(c2ccccc2)c2cc(Cl)ccc21 [DIAZEPAM] | 1.7
